Assay: Average size measured by DLS (dynamic light scattering)
Assay type: physicochemical
Details: measured five times
Procedure: The sizes of HAS and MSA were measured by DLS (dynamic light scattering). The measurement was performed five times in order to ensure uniformity.

HSA: human serum albumin
average size: 6.80±1.3 nm

From patent publication US10159756B2, “Complex of mannosyl serum albumin, method of preparing the same, optical imaging probe and kit comprising the same” (Korea University Research and Business Foundation, priority 2014, dated 2018)
